Source: patent US20250268906A1, “MOLECULAR GLUE COMPOUND BASED ON CEREBLON PROTEIN DESIGN AND USE THEREOF” (GLUETACS THERAPEUTICS (SHANGHAI) CO., LTD., priority 2022, published 2025)

Experiments:
Assay in all cases: Tumor cell proliferation inhibition, CCK-8 kit, 96 h
Type in all cases: cell-based
[1] = test system: Mino cells; details: Homo sapiens, read-out: IC50 for inhibiting the proliferation of tumor cells, Mino cell
Experimental: (§1) The tumor cells used herein were cultured in RPMI 1640 medium supplemented with 10% FBS, penicillin to a final concentration of 100 U/mL, and streptomycin to a final concentration of 100 μg/mL, at 37° C. in an incubator with 5% CO2. Prior to experimentation, all cells used were correctly identified by STR profiling, and tested negative for Mycoplasma through routine screenings.
(§2) IC50 values of the compounds of the present disclosure (including the compounds in Table 1, and Examples compounds) were measured using the Meilun Cell Counting Kit-8 kit from Dalian Meilun Biotech Co., Ltd. Assay details are as follows: the tumor cells were seeded into RPMI-1640 medium containing serum at a certain seeding density, wherein the seeding densities of the tumor cells are as follows: TMD8 cells, MM.1S cells, or Mino cells were seeded at a density of 10,000 cells/100 μL/well, and Daudi cells were seeded at a density of 4,000 cells/100 μL/well. After 24 h, 100 μL of the inoculated cells were treated with 0.5 μL of the compounds of the present disclosure (including the compounds in Table 1, and Examples compounds) in DMSO at 10 different successively decreasing concentrations (starting at a maximum concentration of 10 μM; 5-fold serial dilutions). […] The growth inhibition of the compounds of the present disclosure on the cells was plotted using Prism Graphpad software, and the IC50 values of the compounds of the present disclosure were calculated.

[2] = test system: Daudi cells; details: Homo sapiens, read-out: IC50 for inhibiting the proliferation of tumor cells, Daudi cell
Experimental: as §1, §2

[3] = test system: TMD8 cells; details: Homo sapiens, TMD8, 96 h, read-out: IC50 for inhibiting the proliferation of tumor cells, TMD8 cell
Experimental: as §1, §2

[4] = test system: MM.1S cells; details: Homo sapiens, MM1.S, read-out: IC50 for inhibiting the proliferation of tumor cells, MM.1S cell
Experimental: as §1, §2

Compound: Nc1cccc2c1CN(C1CCC(=O)NC1=O)C2=O (stereo not shown) [lenalidomide, reference compound]
- IC50 [1]: 500 to 1000 nM
- IC50 [2]: > 10 µM
- IC50 [3]: 1000 to 5000 nM
- IC50 [4]: 1000 to 5000 nM
